Assay: Modulation of human utrophinA expressed in mouse H2K-mdx utrnA-luc cells assessed as upregulation of utrophin production after 24 hrs by luciferase reporter gene assay

SMILES: CCP(=O)(OC)c1ccc2oc(-c3ccc(F)cc3)nc2c1 (stereo unspecified)
- EC50: 244 nM
